# Test results: paper PMC10303687 (Protein Science : A Publication of the Protein Society, 2023)
# B1: MDM2_(L. camtschaticum) SWIB domain (domain or fragment)
# chain: GPMGSSSGVRKEDLVRPVPLLLRLLQSVGAKSDTFTVQQVIHHLGQYIKTKQLYDKQRQHIVHCKGDPLGEVFGVESFSLKEPSSSSGSVGALLAKALSIAATDKRKDHTGVGDGAVKES
# Molecular target: T1, FITC-labeled p53TAD_(H. sapiens)^15–26 (human (Homo sapiens), UniProt P04637 15-26, FITC label (position not given))
# T1 construct: Probe of the fluorescence polarisation experiments; also called FITC‐labeled p53TAD_(Human); FITC-labeled human p53TAD^15–26 peptide; source: synthetic peptide
# Assay: fluorescence polarisation; saturation: FITC-labeled human p53TAD 15–26 constant at 6 or 10 nM, dilution series of MDM2; room temperature, 20 mM sodium phosphate pH 7.4, 150 mM NaCl, 1 mM TCEP
# Details: both partners purified
binder,measurement,value
B1,Kd,2700 ± 300 nM
